Tests used:
Assay in all cases: SPR
[1] = biological target: human LIG1 peptide, K126me2, C-terminal biotin (human, UniProt P18858, di-methylated lysine at K126; biotin at the C-terminus)
[2] = biological target: human LIG1 peptide, unmodified (K126me0), C-terminal biotin (human, UniProt P18858, biotin at the C-terminus)
[3] = biological target: human LIG1 peptide, K126me1, C-terminal biotin (human, UniProt P18858, mono-methylated lysine at K126; biotin at the C-terminus)

Sequences of proteins named here, by UniProt entry; tags and fusion partners are left off. A change or cut given only in a name is not applied to a line headed by its entry.
UniProt P18858: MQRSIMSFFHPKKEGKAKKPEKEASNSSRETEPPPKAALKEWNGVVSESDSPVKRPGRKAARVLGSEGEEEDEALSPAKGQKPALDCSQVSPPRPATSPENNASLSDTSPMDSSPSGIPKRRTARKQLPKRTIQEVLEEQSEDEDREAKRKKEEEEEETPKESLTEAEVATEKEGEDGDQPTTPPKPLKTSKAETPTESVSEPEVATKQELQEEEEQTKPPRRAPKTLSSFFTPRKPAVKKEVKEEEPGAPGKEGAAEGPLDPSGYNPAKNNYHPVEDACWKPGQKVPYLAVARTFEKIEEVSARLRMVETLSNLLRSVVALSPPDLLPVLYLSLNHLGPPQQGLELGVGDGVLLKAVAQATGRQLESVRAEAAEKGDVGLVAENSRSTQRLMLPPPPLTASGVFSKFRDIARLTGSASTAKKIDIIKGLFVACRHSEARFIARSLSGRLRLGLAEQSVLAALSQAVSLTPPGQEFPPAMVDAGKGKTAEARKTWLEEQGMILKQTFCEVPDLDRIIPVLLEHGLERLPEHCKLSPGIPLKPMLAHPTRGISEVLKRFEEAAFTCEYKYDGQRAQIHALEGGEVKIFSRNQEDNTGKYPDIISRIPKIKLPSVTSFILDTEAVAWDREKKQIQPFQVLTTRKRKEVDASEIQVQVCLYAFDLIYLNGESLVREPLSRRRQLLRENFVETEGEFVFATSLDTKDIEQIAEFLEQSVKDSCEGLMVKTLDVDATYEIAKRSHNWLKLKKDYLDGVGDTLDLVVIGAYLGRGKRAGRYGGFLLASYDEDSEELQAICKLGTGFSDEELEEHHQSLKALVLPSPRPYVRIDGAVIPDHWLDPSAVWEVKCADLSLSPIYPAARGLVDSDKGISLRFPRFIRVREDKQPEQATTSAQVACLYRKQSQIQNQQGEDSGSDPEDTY

B1: human G9a SET-domain (residues 913–1193) (domain or fragment)
chain: NRAIRTEKIICRDVARGYENVPIPCVNGVDGEPCPEDYKYISENCETSTMNIDRNITHLQHCTCVDDCSSSNCLCGQLSIRCWYDKDGRLLQEFNKIEPPLIFECNQACSCWRNCKNRVVQSGIKVRLQLYRTAKMGWGVRALQTIPQGTFICEYVGELISDAEADVREDDSYLFDLDNKDGEVYCIDARYYGNISRFINHLCDPNIIPVRVFMLHQDLRFPRIAFFSSRDIRTGEELGFDYGDRFWDIKSKYFTCQCGSEKCKHSAEAIALEQSRLARLD
**Q.** What does the source list for B1?
**A.** Kd [1]: > 1000 nM; Kd [2]: 550 nM; Kd [3]: > 1000 nM

From publication PMC6172828 (2018)
